Results on one molecule are retold here after ChEMBL document CHEMBL3232832, “Derivatives of dibenzothiophene for positron emission tomography imaging of α7-nicotinic acetylcholine receptors” (J Med Chem, 2013).

The chains behind the UniProt entries cited, without tags or fusion partners. Residues count along the entry.
UniProt Q05941, 23-502 limits assumed: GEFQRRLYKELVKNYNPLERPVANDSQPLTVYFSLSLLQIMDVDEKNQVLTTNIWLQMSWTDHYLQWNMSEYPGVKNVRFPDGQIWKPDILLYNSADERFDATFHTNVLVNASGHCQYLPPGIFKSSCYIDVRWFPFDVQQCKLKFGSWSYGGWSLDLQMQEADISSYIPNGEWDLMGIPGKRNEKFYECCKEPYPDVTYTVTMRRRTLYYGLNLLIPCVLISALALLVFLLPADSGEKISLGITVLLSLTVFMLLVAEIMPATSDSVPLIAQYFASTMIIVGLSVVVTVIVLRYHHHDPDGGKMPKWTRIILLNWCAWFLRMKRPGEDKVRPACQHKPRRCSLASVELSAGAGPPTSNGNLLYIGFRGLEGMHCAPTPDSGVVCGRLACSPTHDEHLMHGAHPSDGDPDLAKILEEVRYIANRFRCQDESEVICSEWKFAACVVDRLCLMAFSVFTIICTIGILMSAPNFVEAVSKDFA

SMILES strings stand for the structures.

The Ki is a measure of affinity in units of concentration, obtained from inhibition or displacement. A low value points to a stronger hold on the target.

Data set [1] concerns the target Neuronal acetylcholine receptor subunit alpha-7 (Rattus norvegicus, UniProt Q05941). The data set is described as follows: Binding affinity to rat brain alpha7 nAChR.
Data set [2] can be described thus: Ratio of drug uptake in cortex to cerebellum in mouse. The conditions noted are these: in vivo. The class given is ADME, organism-based.

Turning to `[11CH3]Nc1cccc(C(=O)O[C@H]2CN3CCC2CC3)c1`, the Ki in data set [1] was 40.6 nM. The Ratio in data set [2] was found to be 0.4.
